For this assay, the target named is T1, 5-HT2 receptor (Rattus norvegicus, UniProt P14842).
T1 construct: from tissue; host or cells: living rats (in vivo), CNS
Put plainly: Quipazine inhibition (head twitches). The class given is in vivo. Conditions: sc, 2 h, read-out: Qvipaz. inh. ED50(sc).

By UniProt entry, the sequences of proteins in these tests, tags left out.
UniProt P14842, whole entry: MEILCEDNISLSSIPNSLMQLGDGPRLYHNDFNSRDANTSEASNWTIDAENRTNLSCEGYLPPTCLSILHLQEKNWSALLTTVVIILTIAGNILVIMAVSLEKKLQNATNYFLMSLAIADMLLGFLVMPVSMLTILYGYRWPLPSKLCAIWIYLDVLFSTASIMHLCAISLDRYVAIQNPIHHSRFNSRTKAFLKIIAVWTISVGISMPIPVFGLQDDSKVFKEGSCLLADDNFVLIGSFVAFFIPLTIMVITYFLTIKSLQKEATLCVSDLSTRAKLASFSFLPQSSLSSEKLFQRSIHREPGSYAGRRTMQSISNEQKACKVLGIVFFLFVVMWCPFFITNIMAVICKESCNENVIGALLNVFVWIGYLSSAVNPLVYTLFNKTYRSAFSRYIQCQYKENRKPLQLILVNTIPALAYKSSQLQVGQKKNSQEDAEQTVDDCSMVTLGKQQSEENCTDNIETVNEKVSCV

Molecules are shown by their SMILES.

With `CN(C)CCCN1c2ccccc2Sc2ccc(Cl)cc21` [Clorpromazine, reference compound], the ED50 amounted to 0.38 µmol/kg.

The record behind these values is patent publication US4710500A, “1-(4'-fluorophenyl)-3,5-substituted indoles useful in the treatment of psychic disorders and pharmaceutical compositions thereof” (H. Lundbeck A/S, priority 1985, dated 1987).
